Values quoted from earlier work, collected in article PMC5424110, “Preclinical anti-arthritic study and pharmacokinetic properties of a potent histone deacetylase inhibitor MPT0G009” (Cell Death & Disease, 2014).

Test system: osteoclastogenesis
Design: method as in PMID 19766111
Settings: cited from earlier work

SMILES: O=C(CCCCCCC(=O)Nc1ccccc1)NO [SAHA, suberoylanilide hydroxamic acid, reference compound]
- concentration that suppresses osteoclastogenesis in vitro: 300 nM
